The values that follow come from US5409692A, “Glucosyltransferase inhibitors, as well as dental caries prevention methods and anticarious foods using the same” (priority 1990, dated 1995).

This assay deals with glucosyltransferase. In words: Glucosyltransferase inhibition activity (insoluble glucan, absorbance at 550 nm). In kind it is biochemical, S. mutans MT8148. Particulars: 0.15 ml of 2,000 ppm sample solution in 3 ml total volume; pH 6.0, 37° C., 3 hours; control water. The procedure: As an enzyme solution, was used an extract which was obtained by culturing S. mutans MT8148 strain on Todd-Hewitt medium and then extracting hyphae with 8M urea in accordance with the method proposed by Hamada et al. [S. Hamada et al., J. Gen. Microbiol., 35, 335- 344 (1999 )].
A reaction system was prepared by adding 0.15 ml of an aqueous solution of a sample, said solution having been prepared to contain the sample at the concentration of 2,000 ppm, the enzyme solution prepared from the S. mutans strain and water to 0.6 ml of 500 mM sodium phosphate buffer which had pH 6.0 and contained 5% of sucrose, 0.5% of dextran T10 and 0.5% of sodium azide. The water was added in an amount to give a total volume of 3 ml. They were reacted in a glass test tube. In the above measurement, the amount of the enzyme was set such that the absorbance at 550 nm became about 1.0 when reacted at 37° C. for 3 hours.
Resultant insoluble glucan was subjected to ultrasonic disintegration and the; absorbance (A) at 550 nm was measured. Using as control (B) the absorbance obtained from the use of water in place of the sample solution, the inhibition rate (%) was determined in accordance with the following calculation formula: [formula] (Measurement results ) […]

For `O=C(O[C@@H]1Cc2c(O)cc(O)cc2O[C@@H]1c1cc(O)c(O)c(O)c1)c1cc(O)c(O)c(O)c1` [Epigallocatechin gallate], the “Inhibition rate, %” value is reported as 17%.
